# Data: article PMC10245146, “CNS4 causes subtype‐specific changes in agonist efficacy and reversal potential of permeant cations in NMDA receptors” (Pharmacology Research & Perspectives, 2023)
# Amino acid sequences for entries named in this document (tags omitted). Residues count along the entry.
# UniProt Q14957, 20-1233: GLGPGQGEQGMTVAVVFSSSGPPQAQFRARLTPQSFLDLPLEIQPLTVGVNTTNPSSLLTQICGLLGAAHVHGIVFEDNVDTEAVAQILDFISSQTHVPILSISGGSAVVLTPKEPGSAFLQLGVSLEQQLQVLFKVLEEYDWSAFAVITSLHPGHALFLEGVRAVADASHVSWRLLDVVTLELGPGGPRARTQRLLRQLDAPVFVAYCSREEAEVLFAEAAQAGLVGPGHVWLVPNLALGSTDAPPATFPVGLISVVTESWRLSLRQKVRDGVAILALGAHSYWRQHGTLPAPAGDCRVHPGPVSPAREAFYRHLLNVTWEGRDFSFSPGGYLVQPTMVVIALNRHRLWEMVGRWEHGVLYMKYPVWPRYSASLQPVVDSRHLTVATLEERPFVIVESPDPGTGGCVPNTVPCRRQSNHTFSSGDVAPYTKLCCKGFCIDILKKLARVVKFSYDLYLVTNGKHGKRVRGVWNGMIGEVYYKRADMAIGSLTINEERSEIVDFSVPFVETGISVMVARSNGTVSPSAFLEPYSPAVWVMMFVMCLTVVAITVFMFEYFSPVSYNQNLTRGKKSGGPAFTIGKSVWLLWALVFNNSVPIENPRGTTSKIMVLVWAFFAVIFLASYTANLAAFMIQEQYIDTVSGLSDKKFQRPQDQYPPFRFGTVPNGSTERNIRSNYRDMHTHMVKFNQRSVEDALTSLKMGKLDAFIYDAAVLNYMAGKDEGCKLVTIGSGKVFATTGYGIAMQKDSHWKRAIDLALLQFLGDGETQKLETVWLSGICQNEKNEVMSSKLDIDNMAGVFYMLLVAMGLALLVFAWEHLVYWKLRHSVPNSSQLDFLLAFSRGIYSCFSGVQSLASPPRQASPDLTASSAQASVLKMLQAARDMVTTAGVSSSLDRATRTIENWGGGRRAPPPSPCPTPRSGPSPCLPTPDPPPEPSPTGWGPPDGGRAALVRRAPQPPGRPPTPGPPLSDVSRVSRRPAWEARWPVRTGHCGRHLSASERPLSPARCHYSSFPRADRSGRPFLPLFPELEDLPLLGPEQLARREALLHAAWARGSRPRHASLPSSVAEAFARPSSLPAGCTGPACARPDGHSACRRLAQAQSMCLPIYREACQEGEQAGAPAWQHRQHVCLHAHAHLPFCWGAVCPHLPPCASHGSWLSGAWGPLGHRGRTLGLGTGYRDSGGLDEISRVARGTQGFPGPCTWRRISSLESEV
# UniProt O15399, 28-1336: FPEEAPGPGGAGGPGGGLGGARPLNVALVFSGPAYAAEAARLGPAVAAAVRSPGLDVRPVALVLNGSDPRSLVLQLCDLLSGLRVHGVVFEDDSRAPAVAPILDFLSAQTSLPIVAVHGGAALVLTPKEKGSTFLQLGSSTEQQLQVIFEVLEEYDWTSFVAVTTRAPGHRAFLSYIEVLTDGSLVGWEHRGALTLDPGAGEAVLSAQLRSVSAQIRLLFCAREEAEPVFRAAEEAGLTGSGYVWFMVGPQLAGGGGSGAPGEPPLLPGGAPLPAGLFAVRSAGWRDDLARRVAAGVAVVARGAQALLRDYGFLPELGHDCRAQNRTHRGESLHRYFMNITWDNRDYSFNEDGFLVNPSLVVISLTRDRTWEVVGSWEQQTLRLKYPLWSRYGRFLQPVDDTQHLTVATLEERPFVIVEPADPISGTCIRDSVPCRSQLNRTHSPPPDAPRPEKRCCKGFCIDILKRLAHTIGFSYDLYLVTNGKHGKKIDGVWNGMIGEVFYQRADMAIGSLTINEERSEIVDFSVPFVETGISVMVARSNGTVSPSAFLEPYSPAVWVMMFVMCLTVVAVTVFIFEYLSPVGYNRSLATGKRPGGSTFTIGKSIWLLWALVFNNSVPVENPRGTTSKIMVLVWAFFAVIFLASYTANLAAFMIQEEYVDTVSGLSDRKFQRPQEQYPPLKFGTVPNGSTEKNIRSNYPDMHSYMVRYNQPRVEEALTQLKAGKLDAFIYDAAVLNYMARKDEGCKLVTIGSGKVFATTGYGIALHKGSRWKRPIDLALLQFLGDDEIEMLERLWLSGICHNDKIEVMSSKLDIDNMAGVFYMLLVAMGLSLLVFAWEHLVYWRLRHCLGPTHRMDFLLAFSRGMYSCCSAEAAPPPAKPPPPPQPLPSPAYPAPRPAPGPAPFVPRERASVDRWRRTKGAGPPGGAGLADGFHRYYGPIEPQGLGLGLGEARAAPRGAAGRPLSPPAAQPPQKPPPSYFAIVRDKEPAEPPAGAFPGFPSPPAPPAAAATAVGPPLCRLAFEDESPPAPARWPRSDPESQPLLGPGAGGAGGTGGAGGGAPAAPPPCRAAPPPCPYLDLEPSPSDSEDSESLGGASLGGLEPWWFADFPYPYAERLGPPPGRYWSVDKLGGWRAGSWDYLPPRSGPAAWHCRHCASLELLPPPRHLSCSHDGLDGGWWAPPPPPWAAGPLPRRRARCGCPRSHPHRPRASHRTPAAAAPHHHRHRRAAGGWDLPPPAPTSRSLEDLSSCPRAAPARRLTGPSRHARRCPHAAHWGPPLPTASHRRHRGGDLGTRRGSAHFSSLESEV
# UniProt Q12879, 23-1464: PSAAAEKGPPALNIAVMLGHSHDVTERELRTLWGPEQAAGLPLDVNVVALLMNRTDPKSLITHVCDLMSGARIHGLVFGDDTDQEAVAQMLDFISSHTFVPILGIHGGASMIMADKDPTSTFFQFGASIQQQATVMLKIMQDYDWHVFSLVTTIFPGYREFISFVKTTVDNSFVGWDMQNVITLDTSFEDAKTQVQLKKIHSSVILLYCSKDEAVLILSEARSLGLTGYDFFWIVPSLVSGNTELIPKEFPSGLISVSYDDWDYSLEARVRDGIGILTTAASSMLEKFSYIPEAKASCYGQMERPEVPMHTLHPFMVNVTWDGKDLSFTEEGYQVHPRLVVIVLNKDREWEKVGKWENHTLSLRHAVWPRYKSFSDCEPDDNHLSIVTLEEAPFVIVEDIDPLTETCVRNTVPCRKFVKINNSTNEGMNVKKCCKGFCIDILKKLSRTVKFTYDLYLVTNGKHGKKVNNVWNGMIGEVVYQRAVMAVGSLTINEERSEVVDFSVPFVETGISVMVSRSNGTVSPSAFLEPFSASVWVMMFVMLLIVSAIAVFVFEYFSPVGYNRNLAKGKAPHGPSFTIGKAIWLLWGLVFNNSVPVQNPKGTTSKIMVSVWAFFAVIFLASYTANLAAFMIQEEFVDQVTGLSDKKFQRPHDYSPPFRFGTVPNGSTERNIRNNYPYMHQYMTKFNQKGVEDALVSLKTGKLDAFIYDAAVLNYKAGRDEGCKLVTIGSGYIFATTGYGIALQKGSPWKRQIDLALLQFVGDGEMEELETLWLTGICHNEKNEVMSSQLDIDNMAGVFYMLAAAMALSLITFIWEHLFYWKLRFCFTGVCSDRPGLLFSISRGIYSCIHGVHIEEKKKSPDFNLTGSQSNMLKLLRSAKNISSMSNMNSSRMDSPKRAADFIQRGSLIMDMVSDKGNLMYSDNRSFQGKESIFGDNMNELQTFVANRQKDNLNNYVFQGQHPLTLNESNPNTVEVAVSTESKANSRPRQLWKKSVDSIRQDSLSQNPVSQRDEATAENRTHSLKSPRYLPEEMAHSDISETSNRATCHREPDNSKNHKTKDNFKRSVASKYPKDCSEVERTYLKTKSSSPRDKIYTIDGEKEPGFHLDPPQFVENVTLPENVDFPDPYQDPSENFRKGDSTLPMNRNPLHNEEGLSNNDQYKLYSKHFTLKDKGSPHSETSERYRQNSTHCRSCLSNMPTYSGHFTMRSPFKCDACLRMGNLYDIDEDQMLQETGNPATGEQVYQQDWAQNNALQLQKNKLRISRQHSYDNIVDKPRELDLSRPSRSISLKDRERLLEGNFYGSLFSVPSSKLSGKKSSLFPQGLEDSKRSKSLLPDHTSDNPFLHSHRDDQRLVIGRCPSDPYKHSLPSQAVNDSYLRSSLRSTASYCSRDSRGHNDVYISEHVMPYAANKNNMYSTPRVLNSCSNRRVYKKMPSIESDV
# UniProt Q00960, 27-1482: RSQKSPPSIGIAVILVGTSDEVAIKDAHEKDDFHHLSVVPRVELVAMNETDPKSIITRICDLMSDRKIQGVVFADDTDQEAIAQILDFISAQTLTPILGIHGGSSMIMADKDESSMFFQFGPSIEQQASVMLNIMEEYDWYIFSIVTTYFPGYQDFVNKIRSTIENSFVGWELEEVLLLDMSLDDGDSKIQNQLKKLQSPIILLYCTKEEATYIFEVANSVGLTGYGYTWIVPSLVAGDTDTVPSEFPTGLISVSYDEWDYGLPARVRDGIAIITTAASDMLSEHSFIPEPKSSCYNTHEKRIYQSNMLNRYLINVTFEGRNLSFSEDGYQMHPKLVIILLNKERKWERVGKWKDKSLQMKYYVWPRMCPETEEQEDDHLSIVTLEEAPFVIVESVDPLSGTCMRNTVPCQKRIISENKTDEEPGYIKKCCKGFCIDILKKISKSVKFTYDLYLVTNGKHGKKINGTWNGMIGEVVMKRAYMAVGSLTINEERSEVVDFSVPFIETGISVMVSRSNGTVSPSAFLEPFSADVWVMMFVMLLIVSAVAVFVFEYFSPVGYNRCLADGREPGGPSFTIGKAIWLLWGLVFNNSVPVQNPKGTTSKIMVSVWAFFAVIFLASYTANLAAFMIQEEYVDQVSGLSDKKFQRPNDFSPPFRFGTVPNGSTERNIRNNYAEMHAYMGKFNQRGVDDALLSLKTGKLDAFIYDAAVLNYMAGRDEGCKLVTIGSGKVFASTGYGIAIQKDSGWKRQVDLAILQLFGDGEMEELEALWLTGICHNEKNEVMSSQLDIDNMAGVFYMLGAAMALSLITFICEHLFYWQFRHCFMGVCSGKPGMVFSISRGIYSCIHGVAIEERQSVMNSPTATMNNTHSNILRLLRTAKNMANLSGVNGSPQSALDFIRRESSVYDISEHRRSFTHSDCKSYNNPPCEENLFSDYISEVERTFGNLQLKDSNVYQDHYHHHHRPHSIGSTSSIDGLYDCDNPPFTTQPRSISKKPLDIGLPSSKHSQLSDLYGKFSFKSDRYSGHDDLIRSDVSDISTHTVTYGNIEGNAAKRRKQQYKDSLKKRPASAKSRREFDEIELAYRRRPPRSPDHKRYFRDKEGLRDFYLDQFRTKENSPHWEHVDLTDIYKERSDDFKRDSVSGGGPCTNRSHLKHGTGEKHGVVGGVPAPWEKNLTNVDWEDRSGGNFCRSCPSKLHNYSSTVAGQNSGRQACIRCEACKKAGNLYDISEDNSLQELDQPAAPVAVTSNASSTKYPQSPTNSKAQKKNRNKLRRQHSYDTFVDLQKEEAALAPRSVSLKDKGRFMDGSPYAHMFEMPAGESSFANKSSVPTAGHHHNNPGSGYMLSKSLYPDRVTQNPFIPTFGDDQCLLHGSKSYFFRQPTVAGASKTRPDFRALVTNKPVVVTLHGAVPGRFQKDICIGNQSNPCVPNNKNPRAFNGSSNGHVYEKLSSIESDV
# How the values were obtained:
# Format in all cases: cell-based
# GluN1/2C NMDA receptors = molecular target: T1, GluN1/2C NMDA receptors (UniProt P35439+Q14957); assay: TEVC agonist dose-response, Xenopus oocytes expressing 1/2C; settings: without CNS4; 100 μM glutamate constant; relative to 100 nM glycine
# T1 construct: host or cells: Xenopus oocytes (cRNA injection)
# Text: (§1) NMDA receptor constructs: cDNA encoding the NMDA receptor1a subunit (GluN1a) was obtained from Dr. Nakanishi (Kyoto, Japan). cDNA encoding the GluN2B (pci_sepGluN2B), originally developed in the Malinow lab,[33] was purchased from Addgene (cat# 23998), Cambridge, MA. cDNA encoding the GluN2C and GluN2D were purchased from GenScript, New Jersey, USA. Mutated GluN1, 2A and 2B cDNA constructs capable of assembling as GluN1/2A/2B triheteromeric (1/2AB) receptors[34] were obtained from Dr. Paoletti (Laboratoire de Neurobiologie, CNRS). These constructs have been previously tested for 1/2AB receptor activity of GluN1/2A receptor‐selective potentiators.[35] […]
# (§2) Electrophysiological responses were measured using a standard two‐microelectrode voltage‐clamp workstation (Warner Instruments model OC‐725C) designed to provide a fast clamp of large cells. […] Response magnitude was determined in Xenopus oocytes expressing different NMDA receptor subunits (GluN1/2A, 1/2B, 1/2C, 1/2D, and 1/2A/2B) by the steady plateau response elicited by bath application of different agonist concentrations. […] Statistical significance was determined at the overall alpha level 0.05, using appropriate statistical methods as described in all figure captions. […]
# GluN1/2D NMDA receptors = molecular target: T2, GluN1/2D NMDA receptors (UniProt O15399+P35439); assay: TEVC agonist dose-response, Xenopus oocytes expressing 1/2D; settings: without CNS4; 10 μM glycine; 100 μM glutamate constant; relative to 100 nM glycine
# T2 construct: host or cells: Xenopus oocytes (cRNA injection)
# Text: as §1, §2
# GluN1/2A NMDA receptors = molecular target: T3, GluN1/2A NMDA receptors (UniProt P35439+Q12879); assay: TEVC agonist dose-response, Xenopus oocytes expressing 1/2A; settings: without CNS4; 100 μM glutamate constant; relative to 1 μM glycine
# T3 construct: expressed in transfected cells; host or cells: Xenopus oocytes (cRNA injection)
# Text: as §1, §2
# GluN1/2B NMDA receptors = molecular target: T4, GluN1/2B NMDA receptors (Rattus norvegicus, UniProt P35439+Q00960); assay: TEVC agonist dose-response, Xenopus oocytes expressing 1/2B; settings: without CNS4; 100 μM glutamate constant; relative to 1 μM glycine
# T4 construct: SEP (super-ecliptic pHluorin; printed only as 'sep' in the plasmid name); host or cells: Xenopus oocytes (cRNA injection)
# Text: as §1, §2
smiles,measurement,setting,value
"NCC(=O)O [glycine, reference compound]",Glycine efficacy: relative fold change in current at highest glycine concentration,GluN1/2C NMDA receptors,1.03 ± 0.02 fold
same,Glycine efficacy: relative fold change in current at highest glycine concentration,GluN1/2D NMDA receptors,1.075 ± 0.07 fold
same,Glycine efficacy: relative fold change in current at highest glycine concentration,GluN1/2A NMDA receptors,2.89 ± 0.11 fold
same,Glycine efficacy: relative fold change in current at highest glycine concentration,GluN1/2B NMDA receptors,1.45 ± 0.13 fold
